The test deals with T1, Plasma Kallikrein (Homo sapiens, UniProt P03952).
T1 construct: PD measurements were determined in dextran sulfate (DXS) stimulated undiluted plasma using a fluorogenic enzyme assay; from tissue; host or cells: undiluted plasma of healthy male volunteers after oral dosing, stimulated ex vivo with dextran sulfate
The experiment in a line: Phase 1 SAD / food effect: ex vivo PKa catalytic activity in DXS-stimulated undiluted plasma. As to the method:
PD measurements were determined in dextran sulfate (DXS) stimulated undiluted plasma using a fluorogenic enzyme assay and capillary based HK cleavage immunoassay.
The time until appearance of detectable amidolytic enzyme activity in DXS-stimulated plasma (lag time) was calculated from the catalytic activity assay. The detection sensitivity of the rate of catalytic activity in plasma based on using a Spark (Tecan) fluorimeter is a fluorescence increase to reach 1ΔF unit/sec.

Sequences of proteins named here, by UniProt entry; tags and fusion partners are left off. Residues count along the entry.
UniProt P03952, 20-390 partner limits assumed: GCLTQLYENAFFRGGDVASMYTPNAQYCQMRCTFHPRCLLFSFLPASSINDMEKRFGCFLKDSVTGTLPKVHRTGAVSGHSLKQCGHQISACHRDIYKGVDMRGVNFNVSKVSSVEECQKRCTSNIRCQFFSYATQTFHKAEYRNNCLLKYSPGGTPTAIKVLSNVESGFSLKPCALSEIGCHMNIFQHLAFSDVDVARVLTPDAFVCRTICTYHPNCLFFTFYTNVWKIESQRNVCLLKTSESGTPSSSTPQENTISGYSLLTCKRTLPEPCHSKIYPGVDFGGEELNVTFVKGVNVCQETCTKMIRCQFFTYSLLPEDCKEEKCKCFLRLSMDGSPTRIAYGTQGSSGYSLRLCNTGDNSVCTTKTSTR
UniProt P03952, 391-638 limits assumed: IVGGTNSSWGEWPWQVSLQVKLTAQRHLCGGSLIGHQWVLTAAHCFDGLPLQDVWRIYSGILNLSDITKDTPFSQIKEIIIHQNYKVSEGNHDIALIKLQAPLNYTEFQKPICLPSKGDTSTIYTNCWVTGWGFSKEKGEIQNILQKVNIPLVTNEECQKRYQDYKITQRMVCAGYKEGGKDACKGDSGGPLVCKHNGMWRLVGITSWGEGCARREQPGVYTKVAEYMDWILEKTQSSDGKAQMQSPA

SMILES strings stand for the structures.

For the compound `COCc1nn(Cc2ccc(Cn3ccccc3=O)cc2)cc1C(=O)NCc1nccc(OC)c1F` [compound of Formula A, N-[(3-fluoro-4-methoxypyridin-2-yl)methyl]-3-(methoxymethyl)-1-({4-[(2-oxopyridin-1-yl)methyl]phenyl}methyl)pyrazole-4-carboxamide], the “inhibition of plasma kallikrein catalytic activity” value is recorded as “above 90%” (160 mg, 300 mg and 600 mg, for a period of time); greater than 90% (cohort 8 (600 mg), between 30 min and 6 hr post-dose). Moreover, the “average inhibition of plasma kallikrein catalytic activity” value (cohort 7 (300 mg), between 20 min and 4 hr post-dose) is greater than 90%.

(Values after patent publication US20220218680A1, “TREATMENTS OF HEREDITARY ANGIOEDEMA” (KALVISTA PHARMACEUTICALS LIMITED, priority 2019, published 2022).)
